Eya2 phos inh = inhibitors of human Eya2 phosphatase activity | recombinant Eya2, OMFP fluorescence dephosphorylation (OMFP is methylfluorescein phosphate) | Potency, µM (top dose mostly 76.9 µM), usual class: inhibitors | 0.006% of 330,000 active | AID 488837
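Eya2 (0.2 uM) preincubated 10 min at ambient with compound, then OMFP substrate added at 50 uM; 10 min reaction in 50 mM HEPES pH 7.5, 50 mM NaCl, 5 uM MgCl2, 0.05% BSA, 1 mM DTT. Fluorescence read at Ex 485/Em 525 nm.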
PTAP TSG101 blk = blocks PTAP/TSG101 interaction to inhibit HIV-1 budding. Fluorescence polarization, FITC-PTAP peptide / Tsg101 binding. Potency, µM (doses to about 115 µM), actives largely listed as inhibitors. 340,000 tested, under 10 active. Q99816; active = well fitted inhibition curve with a large enough effect in the main read-out, with a control signal flat, not every such curve was filed as active; inconclusive = small, poorly fitted or top-dose-only effect, or effect the other way, or a change in a side signal; inactive = no such curve, though single readings can be large or run the other way
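Compounds were pin-transferred onto Tsg101 binding domain (10 uM final) in HEPES pH 7.5 buffer, then FITC-PTAP peptide was added at 50 nM final. After 20 min at RT, polarization reported peptide displacement across a qHTS concentration series.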
PTHR1 agonist = activates the human parathyroid hormone receptor PTHR1 | HEK293 GP2 PTHR1 cells, GloSensor cAMP luminescence, 1 h | Potency, µM (titrated, usually from 115 µM), hits mostly activators | 0.075% of 410,000 active; also: nearly all actives have a fitted effect of over 55% in size
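HEK-293-derived GP2 cells expressing PTHR1 and a GloSensor cAMP reporter, 3,000/well, plated overnight, given luciferin plus IBMX (each 0.5 mM as added) for 1 h at 37 °C, then compound for 1 h at 37 °C. Luminescence was read after 15 min at room temperature.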
USP2a inh = blocks human ubiquitin-specific protease USP2a; USP2 core, Ub-CHOP2 coupled fluorogenic reporter, 485/531; Potency, µM (top dose mostly 38.3 µM), actives largely listed as inhibitors; 0.01% of 330,000 active; AID 463254
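Deubiquitinase activity read as fluorescence (485/531 nm) after Ub-CHOP2 cleavage activates the enterokinase reporter on its substrate; USP2 core 10nM, Ub-CHOP2 and substrate 25nM each, 30min compound preincubation then 60min RT; data normalized to NEM, curves fitted.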
miR-21 reporter = raises the signal of a miR-21 reporter; HeLa miR-21 FLuc reporter, luciferase, 48 h; Potency, µM (top dose mostly 38.3 µM); AID 2288; 340,000 tested, under 10 active; active = well fitted rising curve with a large enough effect; inconclusive = small, poorly fitted or top-dose-only effect; inactive = no such curve, though single readings can be large or run the other way;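 note: miR-21 action dims this reporter so a rising signal means less miR-21 action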
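Luminescence from a firefly luciferase reporter carrying a miR-21 binding site downstream, stably expressed under a CMV promoter in HeLa cells that make miR-21 endogenously, reports miRNA modulation after 48 h compound exposure up to approximately 40uM final.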
GLS inh = inhibitors of human glutaminase (GLS); 0.21% of 410,000 active; Potency, µM (top dose mostly 45.5 µM), usual class: inhibitors; GLS enzymatic activity, qHTS titration
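Assay buffer: 45 mM KH2PO4 pH 8.2, 0.02% Tween-20. hKGA acts on L-glutamine (1 mM solution added); product glutamate is reported by an oxidase/peroxidase Amplex Red coupling, with fluorescence taken at baseline and 30 min.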
Of the large screens only hits and unclear results are named; the others gave an inactive call. In the library only some 0.24% were active in any assay of this set; here they are far more common. Unless noted, calls follow the shape of the dose curve; as a rule, active = well fitted curve in the direction sought with a large enough effect; inconclusive = small, poorly fitted or top-dose-only effect, or another doubt; inactive = no such curve, though single readings can be large; an effect the other way counts as inactive or inconclusive.

Cc1cccc(OCCSc2nc3ccc(NC(=O)c4cccs4)cc3s2)c1	miR-21 reporter inconclusive (no result: Eya2 phos inh, PTAP TSG101 blk, USP2a inh)
CCOC1=C2[C@H](c3ccccc3)N(S(=O)(=O)c3ccc(C)cc3)C(C(C)(C)C)[C@H]2C(C#N)(C#N)C(C#N)(C#N)C1 (some centres not stated)	GLS inh 2.2µM (no result: Eya2 phos inh, PTAP TSG101 blk, USP2a inh, miR-21 reporter)
CCC(C)C1OC2(C=CC1C)CC1CC(C/C=C(\C)C(OC3CC(OC)C(OC4CC(OC)C(NC(C)=O)C(C)O4)C(C)O3)C(C)/C=C/C=C3\COC4C(O)C(C)=CC(C(=O)O1)C34O)O2 (configuration not stated) (tested in a mixture with another compound)	none (no result: Eya2 phos inh, PTAP TSG101 blk, PTHR1 agonist, USP2a inh, miR-21 reporter)
O=c1[nH]c(/C=C\c2cccc(O)c2)nc(O)c1[N+](=O)[O-]	none
O=c1[nH]c(/C=C\c2ccc(O)c(O)c2)nc(O)c1[N+](=O)[O-]	GLS inh 7.9µM
Oc1ccc(N=C/C=C/c2cccc(Br)c2)cc1-c1nc2ccccc2s1	GLS inh 14µM
COc1ccccc1C(=O)NC(=O)COC(=O)Cc1ccc(F)cc1	PTHR1 agonist inconclusive (no result: miR-21 reporter)
COc1ccccc1C(=O)NC(=O)COC(=O)Cc1n[nH]c(=O)c2ccccc12	PTHR1 agonist 50µM (no result: miR-21 reporter)
O=C(O)c1cc(O)c2c(c1)C(=O)c1cc(O)cc(O)c1C2=O	GLS inh 18µM
CC(C)C[C@@H](CNCC(=O)[C@H](Cc1c[nH]c2ccccc12)NC(=O)c1[nH]cnc1C(=O)N[C@@H](C)CN)NC(=O)c1nc[nH]c1C(=O)N[C@@H](CC(=O)O)C(=O)O	GLS inh 10µM (no result: Eya2 phos inh, USP2a inh, miR-21 reporter)
CC(C)C[C@@H](CNCC(=O)[C@H](Cc1c[nH]c2ccccc12)NC(=O)c1[nH]cnc1C(=O)N[C@@H](C)CN)NC(=O)c1nc[nH]c1C(=O)N[C@@H](C)C(=O)O	none (no result: Eya2 phos inh, USP2a inh, miR-21 reporter)
CC(C)C[C@@H](CNCC(=O)[C@H](Cc1c[nH]c2ccccc12)NC(=O)c1[nH]cnc1C(=O)N[C@H](CN)CC(C)C)NC(=O)c1nc[nH]c1C(=O)N[C@@H](CC(=O)O)C(=O)O	GLS inh 8.9µM (no result: Eya2 phos inh, USP2a inh, miR-21 reporter)
CCCCCCC(=O)O[C@@H]1CC[C@H]2[C@@H]3CCc4cc(O)ccc4[C@H]3CC[C@]12C	none (no result: Eya2 phos inh, PTAP TSG101 blk, PTHR1 agonist, USP2a inh, miR-21 reporter)
COC(=O)c1ccccc1NC(=O)c1ccccc1SC	none
CSc1ccccc1C(=O)Nc1ccccc1C(=O)NC(C)C	GLS inh 32µM
COc1ccc(OCC(O)Cn2ccnc2C)cc1 (configuration not stated)	PTHR1 agonist 10µM
COc1ccc(-c2cn3c(n2)sc2cc(C(=O)NC(C)C45CC6CC(CC(C6)C4)C5)ccc23)cc1 (configuration not stated)	PTHR1 agonist inconclusive (no result: Eya2 phos inh, PTAP TSG101 blk, USP2a inh)
CCc1ccccc1N1CSC2=C(C#N)C(c3cc(OC)c(OC)cc3OC)CC(=O)N2C1 (configuration not stated)	PTHR1 agonist 1.6µM
COc1ccc(NC(=O)Cn2c(=O)n(-c3ccc(Cl)cc3)c(=O)c3c(C)c(C(=O)N(C)C)sc32)cc1Cl	none (no result: Eya2 phos inh, PTAP TSG101 blk, USP2a inh)
O=c1oc(-c2ccc(O)c(O)c2)cc2cc(O)cc(O)c12	GLS inh 18µM (no result: miR-21 reporter)
CC(=O)c1cccc(NC(=O)c2nc3ccccc3nc2N2CCCCC2)c1	none (no result: Eya2 phos inh, PTAP TSG101 blk, USP2a inh)
CCN(CC(=O)Nc1c(F)cccc1F)C(=O)/C=C/c1ccc2ccccc2n1	GLS inh 10µM (no result: miR-21 reporter)
CCN(CC(=O)Nc1c(F)cccc1F)C(=O)c1ccc2ccccc2n1	none (no result: miR-21 reporter)
CSCCC(NC(=O)[C@H](Cc1c[nH]c2ccccc12)NC(=O)CNC(=O)[C@H](CCSC)NC(=O)[C@H](Cc1ccc(OS(=O)(=O)O)cc1)NC(=O)[C@@H](N)CC(=O)O)C(=O)N[C@@H](CC(=O)O)C(=O)N[C@@H](Cc1ccccc1)C(N)=O (some centres not stated)	none (no result: Eya2 phos inh, PTAP TSG101 blk, PTHR1 agonist, USP2a inh, miR-21 reporter)
COCCCNC(=O)c1[nH]c2cc(OC)ccc2c1Sc1ccc(C)cc1	PTHR1 agonist inconclusive, miR-21 reporter inconclusive (no result: Eya2 phos inh, PTAP TSG101 blk, USP2a inh)
COc1ccc2c(N)c(C(=O)NN)[nH]c2c1	GLS inh 13µM
[2H]c1c([2H])c([2H])c2c([nH]c(=S)n2C2CCN(CCCC(=O)c3ccc(F)cc3)CC2)c1[2H]	none (no result: Eya2 phos inh, PTAP TSG101 blk, PTHR1 agonist, USP2a inh, miR-21 reporter)
COc1ccc(/C=N/n2c(-c3ccccc3)n[nH]c2=S)cc1	none
Oc1ccc(/C=N/n2c(-c3ccccc3)n[nH]c2=S)cc1	GLS inh 16µM
CCOc1ccccc1NC(=O)CSc1nc2cc(OC)c(OC)cc2c2nc(CCn3c(C)nc4ccccc43)nn12	none (no result: Eya2 phos inh, PTAP TSG101 blk, USP2a inh)
COC(=O)c1cc(NC(=O)CC2SC(=Nc3ccccc3)N(CCc3c[nH]c4ccccc34)C2=O)cc(C(=O)OC)c1 (configuration not stated)	GLS inh 25µM
C#CCOCCOCCOCCNc1nc(N2CCN(C(=O)CCCCCCCCCCNC(=O)[C@H](CCCN=C(N)N)n3cc(C[C@@H](C)CC)nn3)CC2)nc(N2CCN(C(=O)CCCCCCCCCCNC(=O)[C@@H]([C@H](C)CC)n3cc(CCCCCN)nn3)CC2)n1	Eya2 phos inh inconclusive, USP2a inh 10µM (no result: PTAP TSG101 blk, PTHR1 agonist, miR-21 reporter, GLS inh)
C#CCOCCOCCOCCNc1nc(N2CCN(C(=O)CCCCCCCCCCNC(=O)[C@H]([C@@H](C)CC)n3cc(CCCCN=C(N)N)nn3)CC2)nc(N2CCN(C(=O)CCCCCCCCCCNC(=O)[C@H](CCCN=C(N)N)n3cc(C[C@@H](C)CC)nn3)CC2)n1	USP2a inh 11µM (no result: PTAP TSG101 blk, PTHR1 agonist, miR-21 reporter, GLS inh)
